{"sequences": {"note": "Chains of the proteins cited; added tags and fusions are not shown.", "UniProt O43603, whole entry": "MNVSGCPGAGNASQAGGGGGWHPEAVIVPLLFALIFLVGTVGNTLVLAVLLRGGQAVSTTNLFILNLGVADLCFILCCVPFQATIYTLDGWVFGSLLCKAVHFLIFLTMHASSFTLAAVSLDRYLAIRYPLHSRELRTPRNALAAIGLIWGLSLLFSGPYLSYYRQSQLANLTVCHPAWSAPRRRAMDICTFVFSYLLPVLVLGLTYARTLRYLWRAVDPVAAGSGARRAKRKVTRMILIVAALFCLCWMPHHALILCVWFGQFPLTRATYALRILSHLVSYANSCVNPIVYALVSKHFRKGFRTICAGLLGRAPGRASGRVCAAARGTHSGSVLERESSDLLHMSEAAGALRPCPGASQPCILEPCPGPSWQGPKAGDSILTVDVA"}, "source": "PubChem BioAssay AID828", "about": "(The Scripps Research Institute Molecular Screening Center, 2007)", "note": "This is a selection; strong and weak results do not stand in their true shares. Some tests of the compounds listed are not included; inactive here does not mean inactive elsewhere. Active and inactive are the calls of the source. No stated cut-off is given here; in the data, active means inhibition above about 27%; inactive means the rest."}
{"target": "Galanin receptor type 2 (Homo sapiens) (UniProt O43603)", "test": "blockers of human galanin receptor 2 – cell-based, primary screen (AID 828);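 further: cells stimulated with galanin 1-16 at roughly its EC80; 0% = agonist challenge control and 100% = basal control without agonist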", "details": "GALR2-expressing cells, antagonist mode; at 4 µM; stronger effect = higher value"}
{"smiles": "CC(C)N1C(=O)CC2(CCN(CCOC(=O)C(O)(c3ccccc3)c3ccccc3)CC2)C1=O", "inhibition": "inactive: -5.5%"}
{"smiles": "CCN1CCCC(OC(=O)C2(O)c3ccccc3C=Cc3ccccc32)C1", "note": "(stereo not given)", "inhibition": "inactive: -3.44%"}
{"smiles": "CN(C)C1CCCC1OC(=O)C(O)(c1ccccc1)c1ccccc1", "note": "(stereo not given)", "inhibition": "inactive: 4.38%"}
{"smiles": "CN(C)c1cccc(C(=O)NCC2(N(C)C)CCCCC2)c1", "inhibition": "inactive: 1.02%"}
{"smiles": "O=C(OC1CN2CCC1CC2)C(CO)(c1ccccc1)c1ccccc1", "note": "(stereo not given)", "inhibition": "inactive: 13.9%"}
